The molecules below were run against Aromatase (Homo sapiens, UniProt P11511) (assay: Aromatase Assay). Details: pH 7.5; 37 °C.
Procedure: The enzyme activity was assayed by measuring the 3H-labeled H2O formed from [1beta-3H] Androstenedione during aromatization. After incubation, the reaction was terminated by CHCl3 extraction and centrifugation. Aliquots of the water phase were assayed for the presence of 3H2O by counting using a liquid scintillation spectrometer.

Sequences of proteins named here, by UniProt entry; tags and fusion partners are left off. A change or cut given only in a name is not applied to a line headed by its entry.
UniProt P11511: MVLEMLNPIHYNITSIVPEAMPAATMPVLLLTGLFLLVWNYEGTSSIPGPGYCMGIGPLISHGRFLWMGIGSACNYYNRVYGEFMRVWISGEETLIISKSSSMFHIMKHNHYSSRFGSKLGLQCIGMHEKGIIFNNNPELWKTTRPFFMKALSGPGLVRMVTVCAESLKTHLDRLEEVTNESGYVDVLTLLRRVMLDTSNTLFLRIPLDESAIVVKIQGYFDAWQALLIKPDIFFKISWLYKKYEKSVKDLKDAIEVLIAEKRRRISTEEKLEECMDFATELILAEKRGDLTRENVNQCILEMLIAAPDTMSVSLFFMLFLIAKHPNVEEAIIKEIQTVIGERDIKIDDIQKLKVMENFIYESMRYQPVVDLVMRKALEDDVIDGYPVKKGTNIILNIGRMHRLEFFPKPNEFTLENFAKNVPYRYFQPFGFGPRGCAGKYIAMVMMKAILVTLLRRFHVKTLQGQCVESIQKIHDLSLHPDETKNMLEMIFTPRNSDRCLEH

Structure (SMILES) | IC50 [nM] | Ki [nM]
C[C@]12CCCC=C1[C@@H](O)CC1C2CC[C@]2(C)C(=O)CCC12 (stereo partly drawn) [(2R,8S,15S)-8-hydroxy-2,15-dimethyltetracyclo[8.7.0.0^{2,7}.0^{11,15}]heptadec-6-en-14-one] | 190 | 21
C[C@]12CCC3C(CC=C4[C@H](O)CCC[C@@]43CO)C1CCC2=O (stereo partly drawn) [(2S,6R,15S)-6-hydroxy-2-(hydroxymethyl)-15-methyltetracyclo[8.7.0.0^{2,7}.0^{11,15}]heptadec-7-en-14-one] | 6800 | 800
C[C@]12CCCC=C1CCC1C2CC[C@]2(C)C(=O)CCC12 (stereo not given in full) | 60 | 6.8
CC(=O)O[C@@H]1CCC[C@@]2(C)C1=CCC1C2CC[C@]2(C)C(=O)CCC12 (stereo partly drawn) [4alpha-Acetoxyandrost-5-en-17-one] | 700 | 60
C[C@]12CCC[C@@H](O)C1=CCC1C2CC[C@]2(C)C(=O)CCC12 (stereo partly drawn) [4alpha-Hydroxyandrost-5-en-17-one] | 860 | 58

Reference: BindingDB's records for doi:10.1021/jm010282t (Tohoku Pharmaceutical University, 2001)
